Experimental data published in PubChem BioAssay (Tox21).
Values joined by “and” are separate entries in the source; they are usually repeats but may differ in a detail not shown here. Equal entries are not always repeated. Only a part is listed here, and it is no random draw. Records with an inconclusive call do not appear. Active and inactive are the calls of the source. Unless noted, the call rests on the fitted dose curve; in most records, active means well fitted curve in the direction sought with a large enough effect in the repeat runs; inconclusive means weak or mixed curves; inactive means no such curve, though single readings can be large; an effect the other way counts as inactive or inconclusive.

Chains of the proteins cited; added tags and fusions are not shown.
UniProt P11473, whole entry: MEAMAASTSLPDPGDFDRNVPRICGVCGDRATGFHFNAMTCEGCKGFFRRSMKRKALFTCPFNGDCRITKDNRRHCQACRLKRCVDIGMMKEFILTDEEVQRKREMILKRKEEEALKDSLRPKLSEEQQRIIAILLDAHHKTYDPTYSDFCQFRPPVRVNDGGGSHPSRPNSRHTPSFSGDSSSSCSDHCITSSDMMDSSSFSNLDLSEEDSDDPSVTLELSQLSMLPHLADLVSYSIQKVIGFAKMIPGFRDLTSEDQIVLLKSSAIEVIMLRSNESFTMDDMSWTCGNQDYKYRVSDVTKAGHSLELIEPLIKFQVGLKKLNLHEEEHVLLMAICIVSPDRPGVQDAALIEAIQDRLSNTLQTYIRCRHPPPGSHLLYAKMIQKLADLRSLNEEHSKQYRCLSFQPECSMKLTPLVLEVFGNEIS

Experiments:
[1] = qHTS assay to identify small molecule antagonists of the farnesoid-X-receptor (FXR) signaling pathway - cell viability counter screen (AID 743221; active means well fitted cell-killing curve with a large enough effect in the repeat runs, not every such curve was filed as active; further: on the % scale 0 is the no-effect control and ±100 the full control effect; nearly all actives have a fitted effect of over 50% in size); details: FXR-bla HEK293T viability, CellTiter-Glo luminescence, 16 h
Procedure, shortened: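 Cytotoxicity counter screen run in the FXR-bla reporter wells: HEK 293T cells exposed to compound with 50 uM (final) chenodeoxycholic acid for 16 h, 37 C, then viability measured by CellTiter-Glo luminescence after 30 min, room temperature.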

[2] = target: Vitamin D3 receptor (Homo sapiens) (UniProt P11473); assay: qHTS assay to identify small molecule antagonists of the vitamin D receptor (VDR) signaling pathway (AID 743223; active means well fitted inhibition curve with a large enough effect in the signal ratio in the repeat runs, not every such curve was filed as active; the % refers to the signal ratio; further: on the % scale 0 is the no-effect control and ±100 the full control effect); details: VDR-UAS-bla HEK293T, beta-lactamase FRET ratio, 16 h
Procedure, shortened: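 Antagonist mode: compound added to VDR-bla cells alongside agonist 1alpha,25-dihydroxyvitamin D3 (3 nM final), incubation 16 h at 37C. Read-out is LiveBLAzer FRET fluorescence, 2 h at room temperature.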

[3] = qHTS assay to identify small molecule antagonists of the vitamin D receptor (VDR) signaling pathway - cell viability counter screen (AID 743225); details: VDR-bla HEK293T viability, CellTiter-Glo luminescence, 16 h; further: on the % scale 0 is the no-effect control and ±100 the full control effect; nearly all actives have a fitted effect of over 50% in size
Procedure, shortened: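 Cytotoxicity counter screen read by CellTiter-Glo luminescence (30 min, room temperature) in the same wells as the VDR-bla antagonist readout. HEK 293T VDR-UAS-bla cells had 16 h at 37C with compound and 3 nM (final) 1-alpha,25-dihydroxyvitamin D3, then 2 h with FRET substrate.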

[4] = qHTS assay to identify small molecule agonists of the NFkB signaling pathway - cell viability counter screen (AID 1159515; calls by dose curve; further: on the % scale 0 is the no-effect control and ±100 the full control effect; nearly all actives have a fitted effect of over 55% in size); details: NFkB-bla ME-180 viability, CellTiter-Glo luminescence, 5 h
Procedure, shortened: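 Cells are seeded (2,000 NFkB-bla ME-180 per well), rested overnight, and dosed with DMSO-dissolved compounds for 5 hr at 37 C. Viability is then read by CellTiter-Glo luminescence after 30 min at room temperature.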

[5] = qHTS assay to identify small molecule agonists of the endoplasmic reticulum stress response signaling pathway (AID 1159516; active means well fitted activation curve with a large enough effect in the signal ratio in the repeat runs, not every such curve was filed as active; the % refers to the signal ratio; further: on the % scale 0 is the no-effect control and ±100 the full control effect); details: ESRE-bla HeLa, ER stress beta-lactamase reporter, 5 h
Procedure, shortened: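 Cells are seeded at 1,500 per well and incubated overnight. Compounds in DMSO are added for 5 hr at 37 C, then beta-lactamase FRET substrate for 2 hr at room temperature, and fluorescence at 460 and 530 nm is measured.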

[6] = qHTS assay to identify small molecule agonists of the endoplasmic reticulum stress response signaling pathway - cell viability counter screen (AID 1159517; calls by dose curve;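 further: HeLa cells carrying an ER stress response element beta-lactamase reporter; on the % scale 0 is the no-effect control and ±100 the full control effect; nearly all actives have a fitted effect of over 50% in size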); details: ESRE-bla HeLa viability, CellTiter-Glo luminescence, 5 h
Procedure, shortened: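 Steps: seed 1,500 ESRE-bla HeLa cells per well; incubate overnight at 37 C, 5% CO2; add compounds in DMSO for 5 hr; run FRET substrate 2 hr RT; add CellTiter-Glo, wait 30 min, read luminescence.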

[7] = qHTS assay to identify small molecule antagonists of the retinoid-related orphan receptor gamma (ROR-gamma) signaling pathway - cell viability counter screen (AID 1159520); details: Tet-on RORgamma CHO cells viability, ATP luminescence, 16 h; at 92.4 µM (top of the series) unless noted; further: on the % scale 0 is the no-effect control and ±100 the full control effect; nearly all actives have a fitted effect of over 50% in size
Procedure, shortened: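 Tet-on ROR gamma CHO cells were given compounds for 2 hr, then doxycycline hyclate at 1 uM final, and incubated 16 hr at 37 C. Viability was measured as ATP content by CellTiter-Glo luminescence.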

[8] = target: Nuclear receptor ROR-gamma (Homo sapiens) (UniProt P51449); assay: qHTS assay to identify small molecule antagonists of the retinoid-related orphan receptor gamma (ROR-gamma) signaling pathway (AID 1159521); details: Tet-on RORgamma CHO cells, RORE-luciferase, 16 h; at 92.4 µM (top of the series)
[9] = qHTS assay to identify small molecule agonists of the AP-1 signaling pathway - cell viability counter screen (AID 1159525; calls by dose curve; further: nearly all actives have a fitted effect of over 55% in size); details: ME-180 AP-1-bla cells viability, ATP luminescence, 5 h; at 76.8 µM (top of the series) unless noted
Procedure, shortened: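 Same-well cytotoxicity counter screen of the Tox21 10K library in ME-180 cells. The readout is ATP-dependent luminescence after 5 h compound treatment. Data are normalised to DMSO and tetra n-octyl ammonium bromide controls.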

[10] = qHTS assay to identify small molecule agonists of the AP-1 signaling pathway (AID 1159526; calls by dose curve; further: on the % scale 0 is the no-effect control and ±100 the full control effect); details: ME-180 (cervical carcinoma) AP-1-bla reporter, beta-lactamase FRET ratio, 5 h; at 76.8 µM (top of the series)
[11] = qHTS assay to identify small molecule agonists of the RXR signaling pathway - cell viability counter screen (AID 1159529); details: RXR-alpha-bla HEK293T viability, CellTiter-Glo, 16 h; at 76.8 µM (top of the series)
Procedure, shortened: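 CellTiter-Glo luminescence gave viability in the wells also read for beta-lactamase. Cells (RXR-alpha-UAS-bla HEK 293T, 2% charcoal-stripped FBS medium) had 5 hr plating, then 16 hr compound exposure at 37 C; tetraoctyl ammonium bromide served as positive control.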

[12] = qHTS assay to identify small molecule antagonists of the retinoid acid receptor (RAR) signaling pathway - cell viability counter screen (AID 1159551); details: C3RL4 cells viability, ATP luminescence (CellTiter-Glo), 6 h; at 92.4 µM (top of the series) unless noted; further: on the % scale 0 is the no-effect control and ±100 the full control effect; nearly all actives have a fitted effect of over 35% in size
Procedure, shortened: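 Cells (C3RL4) are plated, incubated overnight, dosed with compound in DMSO, then given retinol at 1 uM final. After 6 h at 37 C, CellTiter-Glo is added and luminescence read following 30 min at room temperature.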

[13] = qHTS assay to identify small molecule antagonists of the retinoic acid receptor (RAR) signaling pathway (AID 1159552); details: C3RL4 RARE luciferase reporter, retinol-stimulated, 6 h; at 92.4 µM (top of the series)
Procedure, shortened: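 Luminescent RARE reporter read-out in C3RL4 cells: 6 hr co-treatment at 37 C of test compounds with retinol at 1 uM final. Cells plated overnight beforehand; luciferase reagent incubated 30 min at room temperature before reading.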

[14] = qHTS assay to identify small molecule agonists of the retinoic acid receptor (RAR) signaling pathway (AID 1159553); details: C3RL4 RARE luciferase reporter, agonist, 6 h; further: on the % scale 0 is the no-effect control and ±100 the full control effect
Procedure, shortened: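 Seed C3RL4 reporter cells at 1,000 per well and incubate overnight at 37 C. Add compounds in DMSO, incubate 6 hr. Add luciferase reagent, wait 30 min at room temperature, read luminescence.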

COP(C)(=O)OC
inactive: activity change, negative = cytotoxicity ([1]; at 62.6 µM (top of the series)) -8.23% | activity change, negative = cytotoxicity ([1]; at 81.1 µM (top of the series)) -1.25% | activity change, negative = inhibition ([2]; at 61 µM (top of the series)) -9.95% | activity change, negative = inhibition ([2]; at 78.8 µM (top of the series)) -8.48% | viability change, negative = cytotoxic ([3]; at 61 µM (top of the series)) 1.21% | viability change, negative = cytotoxic ([3]; at 78.8 µM (top of the series)) 5.86% | activity, negative = cytotoxic ([4]; at 61 µM (top of the series)) 14.4% | activity, negative = cytotoxic ([4]; at 78.8 µM (top of the series)) 0.994% | activation ([5]; at 61 µM (top of the series)) -1.35% | activation ([5]; at 78.8 µM (top of the series)) -0.0296% | activity change, negative = cytotoxicity ([6]; at 61 µM (top of the series)) -12.2% | activity change, negative = cytotoxicity ([6]; at 78.8 µM (top of the series)) 11.8% | activity, negative = cytotoxicity [7] 5.38% and 2.27% | activity change, negative = inhibition [8] -7.22% and 11.3% | viability change, negative = cytotoxic [9] 1.02% and -12.7% | activation [10] -0.182% | activity change, negative = cytotoxicity [11] -0.229% and -2.67% | activity change, negative = cytotoxicity [12] 2.81% and 0.898% | activity, negative = inhibition [13] -0.662% and 49.6% | activation ([14]; at 94.8 µM (top of the series)) 0.226%

CC(C)OP(C)(=O)OC(C)C
inactive: activity change, negative = cytotoxicity ([1]; at 62.6 µM (top of the series)) 11.4% and 14.4% | viability change, negative = cytotoxic ([3]; at 61 µM (top of the series)) -3.22% and 7.12% | activity, negative = cytotoxic ([4]; at 61 µM (top of the series)) 0.627% and 5.7% | activation ([5]; at 61 µM (top of the series)) -4.47% and -0.333% | activity change, negative = cytotoxicity ([6]; at 61 µM (top of the series)) 3.28% and 4.16% | activity, negative = cytotoxicity [7] 0.287% and 4% | activity change, negative = inhibition [8] 0.0286% and -0.568% | viability change, negative = cytotoxic [9] 7.97% and 4.62% | activation [10] -5.12% and 0.597% | activity change, negative = cytotoxicity [11] 14.3% and -1.22% | activity change, negative = cytotoxicity [12] -1.53% and 1.25% | activity, negative = inhibition [13] 68.3% and 5.3% | activation ([14]; at 73.3 µM (top of the series)) 0.985% and 0.676%

[NH4+].[O-][Cl+3]([O-])([O-])[O-]
inactive: activity change, negative = cytotoxicity ([1]; at 62.6 µM (top of the series)) -0.776% | activity change, negative = cytotoxicity ([1]; at 81.1 µM (top of the series)) -3.13% | viability change, negative = cytotoxic ([3]; at 61 µM (top of the series)) -11.8% | viability change, negative = cytotoxic ([3]; at 78.8 µM (top of the series)) -2.06% | activity, negative = cytotoxic ([4]; at 61 µM (top of the series)) -5.17% | activity, negative = cytotoxic ([4]; at 78.8 µM (top of the series)) 1% | activation ([5]; at 78.8 µM (top of the series)) -0.103% | activity, negative = cytotoxicity [7] 3.3% and -1.27% | viability change, negative = cytotoxic [9] -1.37% and -4.74% | activation [10] -0.804% and 1.45% | activity change, negative = cytotoxicity [11] 0.758% and 2.77% | activity change, negative = cytotoxicity [12] 1.73% and 2.59%
